Each structure is given as a SMILES string. The entries are a selection whose mix differs from that of the whole data set. The source made the active and inactive calls.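 Rule for the calls: active = activation above the run cutoff, the mean activation of all test compounds plus 3 SD (cut at about 40% in these data); inactive = the rest.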

The experiment is described as follows: nonselective calcium activators in parental CHO-K1 cells, primary screen, counter-screen for M1 PAM project, cell-based, Fluo-8 calcium fluorescence, full deck, 1536-well (AID 602247).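 Note: peak over basal fluorescence ratio in a 140 s read after ATP addition.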 To be noted: parental CHO-K1, ATP EC20, Fluo-8 calcium fluorescence; at 3 µM; hits give high values; 0% at ATP EC20, 100% at ATP max. A general note: The purpose of a counterscreen is to sort out artefacts and off-target activity.
Turning to `O=C(NCC1(N2CCCCC2)CCCCC1)c1ccc(OC(F)F)cc1`, the activation is inactive: 21.9%.
The value for `CC(C)(C)n1nnnc1C(c1ccccc1OC(F)(F)F)N1CCC(n2c(=O)[nH]c3ccccc32)CC1` (stereo not drawn) was inactive: 35.6%; that for `N#CC1(Nc2ccccc2)CCN(CCc2ccccc2)CC1` was inactive: 22.7%.
For `O=c1[nH]c2ccccc2n1C1CCN(C(c2ccccc2OC(F)(F)F)c2nnnn2C2CCCC2)CC1` (stereo not drawn), the activation was inactive: 0.68%.
With `CCN1CCC(Nc2ccc(Cl)cc2)CC1`, the activation was inactive: 0.66%.
The value for `CSc1ccc(C(=O)NCC2(N3CCOCC3)CCCCC2)cc1` was inactive: -0.63%.
As for `O=C(NCC1(N2CCCCC2)CCCCC1)c1cccc([N+](=O)[O-])c1`, the figure is inactive: 23.2%.
As for `O=C(NCC1(N2CCCCC2)CCCCC1)c1cccc(C(F)(F)F)c1`, the figure is inactive: 16.7%; as for `COc1cc(C(=O)NCC2(N3CCCCC3)CCCCC2)ccc1OC(F)F`, inactive: 16.9%.
Regarding `O=C(NCC1(N2CCOCC2)CCCCC1)c1cc(=O)[nH]c2ccccc12`, the activation was inactive: 14.1%.
Turning to `CCCCn1nnnc1C(c1cccc2ccccc12)N1CCC(n2c(=O)[nH]c3ccccc32)CC1` (stereo not drawn), the activation is inactive: 38.6%.
The value for `CN1CCN(CCOC(=O)C(O)(c2ccccc2)c2ccccc2)CC1` was inactive: 7.85%.
As for `COc1ccc(NC2CCN(C(=O)OC(C)(C)C)CC2)cc1`, the figure is inactive: 13.1%.
The value for `CC(C)c1ccc(C(=O)NCC2(N3CCOCC3)CCCCC2)cc1` was inactive: 5.36%; that for `CC(C)c1ccc(NC2CCN(C(=O)OC(C)(C)C)CC2)cc1` was inactive: 1.12%.
Consider `CCCCn1nnnc1C(c1ccccc1OC(F)(F)F)N1CCC(n2c(=O)[nH]c3ccccc32)CC1` (stereo not drawn), for which the activation is inactive: 36.3%.
The value for `CN(C)c1cccc(C(=O)NCC2(N3CCCCC3)CCCCC2)c1` was inactive: -10.3%.
As for `COc1ccc(CN(CCCl)CCCl)cc1Cl`, the figure is inactive: 25%; as for `CCC(c1nnnn1C(C)(C)C)N1CCC(n2c(=O)[nH]c3ccccc32)CC1` (stereo not drawn), inactive: 9.45%.
The value for `O=C(NCC1(N2CCOCC2)CCCCC1)c1cc(F)c(F)cc1Cl` was inactive: 3.32%; that for `COc1cc(OC)c(C(=O)NCC2(N(C)C)CCCCC2)cc1OC` was inactive: 13.5%.
As to `CCCCn1nnnc1C(c1ccnc2ccccc12)N1CCC(n2c(=O)[nH]c3ccccc32)CC1` (stereo not drawn), the activation was inactive: 19.8%.
As for `O=C(NCC1(N2CCCCC2)CCCCC1)c1cncc(Br)c1`, the figure is inactive: 13.9%; as for `CN1CCC(Nc2cccc(F)c2)CC1`, inactive: 12.6%; as for `COc1ccc(C(c2nnnn2C2CCCC2)N2CCC(n3c(=O)[nH]c4ccccc43)CC2)cc1` (stereo not drawn), inactive: 6.53%.
As for `CCCOc1ccc(C(=O)NCC2(N(C)C)CCCCC2)cc1OC`, the figure is inactive: 15%.
For the molecule `Cc1ccc(C(=O)NCC2(N(C)C)CCCCC2)o1`, the activation is inactive: -1.06%.
As for `CCC(c1nnnn1C1CCCC1)N1CCC(n2c(=O)[nH]c3ccccc32)CC1` (stereo not drawn), the activation was inactive: -1.14%.
In the case of `COc1ccc(C(=O)NCC2(N3CCCCC3)CCCCC2)c(OC)c1OC`, the activation was inactive: -5.04%.
The value for `CC(C)(C)OC(=O)N1CCC(N(C(=O)c2ccccc2)c2ccc(F)cc2)CC1` was inactive: 24.2%.
As to `COc1ccc(C(=O)NCC2(N3CCCCC3)CCCCC2)cc1`, the activation is inactive: 6.82%.
With `CCCCn1nnnc1C(c1cccs1)N1CCC(n2c(=O)[nH]c3ccccc32)CC1` (stereo not drawn), the activation was inactive: -1.67%.
The value for `CCCCn1nnnc1C(CC)N1CCC(n2c(=O)[nH]c3ccccc32)CC1` (stereo not drawn) was inactive: 4.33%.
As for `O=C(NCC1(N2CCCCC2)CCCCC1)c1cccs1`, the figure is inactive: 4.68%.
The value for `O=C(NCC1(N2CCCCC2)CCCCC1)c1ccc(=O)[nH]c1` was inactive: 17.8%; that for `Cc1cccc(NC2(C#N)CCN(Cc3ccccc3)CC2)c1` was inactive: -0.26%.
`CSc1ccccc1C(=O)NCC1(N2CCCCC2)CCCCC1`: the activation was inactive: 3.16%.
`Cc1cc(C)cc(N(C(=O)c2ccccc2)C2CCN(C(=O)OC(C)(C)C)CC2)c1`: the activation was inactive: 12.3%.
For the molecule `O=c1[nH]c2ccccc2n1C1CCN(C(c2ccccc2OC(F)(F)F)c2nnnn2C2CCCCC2)CC1` (stereo not drawn), the activation is inactive: 2.62%.
On to `O=C(NCC1(N2CCCCC2)CCCCC1)c1ccc(Cl)nc1`, for which the activation was inactive: 12.4%.
As for `O=C(NCC1(N2CCOCC2)CCCCC1)c1cc2ccccc2o1`, the figure is inactive: 14.8%.
Turning to `COc1ccc(Cl)cc1C(=O)NCC1(N2CCOCC2)CCCCC1`, the activation is inactive: 7.04%.
The value for `O=C(OC1CN2CCC1CC2)C1c2ccccc2Oc2ccccc21` (stereo not drawn) was inactive: 17.6%; that for `O=c1[nH]c2ccccc2n1C1CCN(C(c2cc3ccccc3o2)c2nnnn2C2CCCCC2)CC1` (stereo not drawn) was inactive: 12.1%.
The value for `N#CC1(Nc2ccccc2)CCN(Cc2ccccc2)CC1` was inactive: 19%.
As for `O=C(NCC1(N2CCCCC2)CCCCC1)c1ccc(Cl)s1`, the figure is inactive: -0.36%.
On to `CCCCn1nnnc1C(c1ccc(OC)cc1)N1CCC(n2c(=O)[nH]c3ccccc32)CC1` (stereo not drawn), for which the activation was inactive: 18.4%.
Consider `CCOC(=O)N1CCC(Nc2ccc(OC)cc2)CC1`, for which the activation is inactive: 21.4%.
The value for `O=C1CCN(Cc2ccccc2)CC1` was inactive: 18.4%; that for `CC(C)(C)n1nnnc1C(c1ccccc1)N1CCC(n2c(=O)[nH]c3ccccc32)CC1` (stereo not drawn) was inactive: 8.14%; that for `CCOc1ccc(C)cc1CN(CCCl)CCCl` was inactive: -1.49%.
The value for `COc1ccc(NC2CCN(CCc3ccccc3)CC2)c(OC)c1` was inactive: 11.8%.
As for `CCOC(=O)N1CCC(Nc2ccc(F)cc2)CC1`, the figure is inactive: 12.6%.
On to `O=C(NCC1(N2CCCCC2)CCCCC1)c1ccc(F)cc1`, for which the activation was inactive: -8.22%.
As for `O=P1(N(CCCl)CCCl)SCCCS1`, the figure is inactive: 7.98%.
With `CCCCn1nnnc1C(c1cc2ccccc2o1)N1CCC(n2c(=O)[nH]c3ccccc32)CC1` (stereo not drawn), the activation is inactive: 20.2%.
The value for `CCCCOc1ccc(C(=O)NCC2(N3CCOCC3)CCCCC2)cc1` was inactive: 7.21%.
As for `O=c1[nH]c2ccccc2n1C1CCN(C(c2ccccc2)c2nnnn2C2CCCCC2)CC1` (stereo not drawn), the figure is inactive: 8%; as for `COc1cc(C(=O)NCC2(N(C)C)CCCCC2)ccc1OC(F)F`, inactive: -10.6%; as for `CCOC(=O)N1CCC(Nc2cccc(C)c2)CC1`, inactive: 7.76%.
The value for `O=c1[nH]c2ccccc2n1C1CCN(C(c2cccc3ccccc23)c2nnnn2C2CCCC2)CC1` (stereo not drawn) was inactive: 2.37%; that for `CCC(c1nnnn1C1CCCCC1)N1CCC(n2c(=O)[nH]c3ccccc32)CC1` (stereo not drawn) was inactive: 10.6%; that for `CC(=O)N(c1ccccc1)C1CCNCC1` was inactive: 10.5%.
Take `COc1cccc(C(c2nnnn2C2CCCCC2)N2CCC(n3c(=O)[nH]c4ccccc43)CC2)c1OC` (stereo not drawn): the activation is inactive: -8.7%.
The value for `O=c1[nH]c2ccccc2n1C1CCN(C(c2ccnc3ccccc23)c2nnnn2C2CCCCC2)CC1` (stereo not drawn) was inactive: 16.8%; that for `COc1cc(OC)cc(C(=O)NCC2(N3CCCCC3)CCCCC2)c1` was inactive: 16%; that for `Fc1ccccc1NC1CCN(Cc2ccccc2)CC1` was inactive: 3.54%.
As for `Cc1ccc(C(=O)NCC2(N3CCCCC3)CCCCC2)o1`, the figure is inactive: 6.15%; as for `Cc1ccc(NC2(C#N)CCN(Cc3ccccc3)CC2)cc1`, inactive: 10.5%.
The value for `CC(C)(C)n1nnnc1C(c1ccnc2ccccc12)N1CCC(n2c(=O)[nH]c3ccccc32)CC1` (stereo not drawn) was inactive: 11.8%.
For the molecule `COc1ccc(C(c2nnnn2C2CCCCC2)N2CCC(n3c(=O)[nH]c4ccccc43)CC2)cc1` (stereo not drawn), the activation is inactive: 11%.
The value for `CCN1CCC(Nc2cccc(F)c2)CC1` was inactive: 0.95%; that for `Cc1ccccc1NC1(C#N)CCN(Cc2ccccc2)CC1` was inactive: 17.8%.
The value for `Cn1c(=O)[nH]cc(N(CCCl)CCCl)c1=O` was inactive: -3.52%; that for `CN(C)c1ccc(C(=O)NCC2(N3CCCCC3)CCCCC2)cc1` was inactive: 24.4%; that for `O=C(NCC1(N2CCCCC2)CCCCC1)c1ccco1` was inactive: 3.71%.
`CN1CCC(Nc2ccc(F)c(Cl)c2)CC1`: the activation is inactive: 11.3%.
As for `CCOc1ncccc1C(=O)NCC1(N2CCOCC2)CCCCC1`, the figure is inactive: 13.8%; as for `O=C(O)C1(Nc2ccccc2)CCN(Cc2ccccc2)CC1`, inactive: 13.8%.
As for `NN(c1ccccc1)C1CCN(CCc2ccccc2)CC1`, the figure is inactive: -3.52%.
As for `CC(C)(C)OC(=O)N1CCC(Nc2ccccc2)CC1`, the figure is inactive: 9.45%; as for `CCCOc1ccc(C(=O)NCC2(N(C)C)CCCCC2)cc1`, inactive: 2.19%.
For `O=c1[nH]c2ccccc2n1C1CCN(C(c2cc3ccccc3o2)c2nnnn2C2CCCC2)CC1` (stereo not drawn), the activation is inactive: 36%.
The value for `COc1cccc(C(c2nnnn2C2CCCC2)N2CCC(n3c(=O)[nH]c4ccccc43)CC2)c1OC` (stereo not drawn) was inactive: 15.2%.
The value for `COc1cc(OC)cc(C(=O)NCC2(N3CCOCC3)CCCCC2)c1` was inactive: 10.1%; that for `COc1cccc(C(=O)N(c2cc(C)cc(C)c2)C2CCN(C(=O)OC(C)(C)C)CC2)c1` was inactive: -8.22%.
As for `CCC(CO)(C(=O)OC1CN2CCC1CC2)c1ccccc1` (stereo not drawn), the figure is inactive: -4.39%.
Regarding `CN1CCC(Nc2ccc(Cl)cc2)CC1`, the activation was inactive: 8.19%.
The value for `COc1cc(C(=O)NCC2(N3CCOCC3)CCCCC2)cc(OC)c1C` was inactive: -9.5%; that for `CCCCn1nnnc1C(c1ccccc1)N1CCC(n2c(=O)[nH]c3ccccc32)CC1` (stereo not drawn) was inactive: 13.9%.
As for `O=C(NCC1(N2CCOCC2)CCCCC1)c1cc(Br)ccc1Cl`, the figure is inactive: -0.27%; as for `O=c1[nH]c2ccccc2n1C1CCN(C(c2cccs2)c2nnnn2C2CCCCC2)CC1` (stereo not drawn), inactive: 14.4%; as for `O=c1[nH]c2ccccc2n1C1CCN(C(c2ccnc3ccccc23)c2nnnn2C2CCCC2)CC1` (stereo not drawn), inactive: 13.2%.
The value for `COc1ccc(C(=O)NCC2(N3CCOCC3)CCCCC2)cc1OC` was inactive: -9.77%; that for `COc1cccc(C(c2nnnn2C(C)(C)C)N2CCC(n3c(=O)[nH]c4ccccc43)CC2)c1OC` (stereo not drawn) was inactive: -10.8%.
Take `CCOC(=O)N1CCC(Nc2ccc(C)cc2)CC1`: the activation was inactive: -26.6%.
Turning to `N/C(=N\O)c1c(N)no[n+]1[O-]`, the activation is inactive: 14.2%.
On to `O=c1[nH]c2ccccc2n1C1CCN(C(c2cccs2)c2nnnn2C2CCCC2)CC1` (stereo not drawn), for which the activation was inactive: 2.69%.
As for `O=C(OC1CN2CCC1CC2)C1c2ccccc2C=Cc2ccccc21` (stereo not drawn), the figure is inactive: 8.89%; as for `CCCCn1nnnc1C(c1cccc(OC)c1OC)N1CCC(n2c(=O)[nH]c3ccccc32)CC1` (stereo not drawn), inactive: 0.96%; as for `N#Cc1ccc(C(=O)NCC2(N3CCCCC3)CCCCC2)cc1`, inactive: -9.16%.
As for `CC(C)(C)OC(=O)N1CCC(N(C(=O)c2ccccc2)c2ccc(Cl)cc2)CC1`, the figure is inactive: 8.78%.
The value for `CN(C)C1(CNC(=O)c2cccc(C#N)c2)CCCCC1` was inactive: 17.8%; that for `CCCN1CCC(Nc2cc(OC)cc(OC)c2)CC1` was inactive: 12.8%; that for `O=c1[nH]c2ccccc2n1C1CCN(C(c2ccccc2)c2nnnn2C2CCCC2)CC1` (stereo not drawn) was inactive: 28%.
With `Cc1cc(N(CCCl)CCCl)ccc1C=O`, the activation is inactive: 11.4%.
The value for `c1ccc(CN2CCC(Nc3ccccc3)CC2)cc1` was inactive: 16.8%; that for `CC(C)(C)n1nnnc1C(c1cccc2ccccc12)N1CCC(n2c(=O)[nH]c3ccccc32)CC1` (stereo not drawn) was inactive: 22.6%.

The values are drawn from PubChem BioAssay AID602247 (The Scripps Research Institute Molecular Screening Center, 2012).
